Results taken from PubChem BioAssay AID624418 (National Center for Advancing Translational Sciences (NCATS), 2012).
This is a selection; strong and weak results do not stand in their true shares. Records with an inconclusive call do not appear. Activity calls are given as the source filed them. Calls come from the whole dose curve; as a rule, active = well fitted inhibition curve with a large enough effect; inconclusive = small, poorly fitted or top-dose-only effect, or another doubt; inactive = no such curve, though single readings can be large or run the other way.

assay: qHTS of GLP-1 Receptor Inverse Agonists: Cytotox Screen; details: HEK293 cAMP-luciferase reporter cells, luminescence, 24 h; series mostly up to 38.3 µM; activity change, negative = inhibition: at the top concentration;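 note: loss of luciferase light is scored as toxicity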
Excerpt: The overall goal of this project was to develop a novel assay for discovering small molecule ligands for class B1 G protein-coupled receptors (GPCRs). Very few agonists (or inverse agonists) with generally weak activity for this entire group of physiologically important receptors are known to date. To establish proof-of-principle that this critical bottleneck can be overcome with a suitable screening approach, our studies focused on the class B1 receptor for glucagon-like peptide-1 (GLP-1R), a potential therapeutic target for diabetes and neurodegenerative disease.
The assay was developed using a cell-based functional readout. Toward this goal, stably transfected HEK293 cell clones were established that co-express (i) a cAMP-responsive luciferase reporter gene, and (ii) constitutively active GLP-1R that upon ligand interaction inhibit (inverse agonists) the luciferase activity. In addition, two control cell lines were developed: (i) one that express only the cAMP-responsive reporter gene to enable initial exclusion of GLP-1R independent effects of candidate probes; and (ii) one with the reported gene cloned with another constitutively active orphan receptor GPR119 to enable exclusion of GLP-1R independent inhibitor effects of candidate inverse agonists.
To that end, this assay was optimized for 1536-well format and screened against the MLSMR. Then the same collection was run in this cytotoxicity assay where inhibition was the undesired outcome.
NIH Molecular Libraries Probe Production Network [MLPCN]
NIH Chemical Genomics Center [NCGC]
PI Name: Martin Beinborn, Tufts Medical Center
Six ul of cell suspension (200 cells/uL in DMEM + 10% Nu serum + 1% pen-strep) is dispensed in a white solid 1536-well plate. The plates are incubated for 12 hours at 37 deg C at 5% CO2 followed by addition of 23 nL compounds. After 24 hr incubation at 37 deg C and 5% CO2, 3 uL of luciferase assay detection reagent is added. A luminescence read is obtained on the PerkinElmer Viewlux after 12 min incubation at room temperature.
% is set by controls: 0 for no effect and ±100 for the full control effect.

Structure (SMILES)	activity change, negative = inhibition
O=C(O)C(=O)c1ccc(N(CCCl)CCCl)cc1	inactive: -22%
CCOC(=O)c1ccc(NC(=O)C(C)(CCl)SC)cc1 (stereo unspecified)	inactive: 4.77%
O=C(OC1CN2CCC1CC2)c1cccc([N+](=O)[O-])c1 (stereo unspecified)	inactive: -1.78%
CCC(C)N(CC(C)C)C(=S)SC(NC(C)=O)C(Cl)(Cl)Cl (stereo unspecified)	inactive: -11.6%
Cc1cc(=O)[nH]c(N[N+](=O)[O-])n1	inactive: -9.68%
O=C(OC1CN2CCC1CC2)C12CC3CC(CC(C3)C1)C2 (stereo unspecified)	inactive: -23.2%
Cc1c2c(nc3ccccc13)SC(C(Cl)Cl)C2 (stereo unspecified)	inactive: -15.4%
COc1cc(I)ccc1[As](=O)(O)O	inactive: -0.105%
COc1ccc2nc(NP(=O)(c3ccccc3)c3ccccc3)sc2c1	inactive: -9.63%
O=P1(N(CCCl)CCCl)OCCCN1CCCl (stereo unspecified)	inactive: -1.29%
O=P1(N(CCCl)CCCl)Nc2ccccc2N1	inactive: -2.3%
COc1ccc(N/C(=N/P(=O)(N2CCOCC2)N2CCOCC2)N2CCOCC2)cc1	inactive: -3.64% [at 7.66 µM]
O=[N+]([O-])c1cc(Oc2ccc([N+](=O)[O-])cc2C(F)(F)F)cc([N+](=O)[O-])c1	inactive: -4.28%
COc1cc(C(=O)NCC2(N3CCOCC3)CCCCC2)ccc1OCC(C)C	inactive: 4.62%
O=[As](O)(c1ccc(O)cc1)c1ccccc1O	inactive: -1.12%
C[As](=O)(O)c1cccc(C(=O)O)c1	inactive: 13%
Cc1ccc2nc3c(c(C)c2c1)CC(C(Cl)Cl)S3 (stereo unspecified)	inactive: -3.75%
Cc1ccc(OP(=O)(Nc2ccc([N+](=O)[O-])cn2)Oc2ccc(C)cc2)cc1	inactive: -3.3%
[N-]=[N+]=NC1CCCCC1NC(=O)c1cc([N+](=O)[O-])cc([N+](=O)[O-])c1 (stereo unspecified)	inactive: -16.6%
CC(C)c1ccc(OP(=O)(Nc2ccccn2)Oc2ccccc2F)cc1 (stereo unspecified)	inactive: 2.39%
COC(=O)C1(C)COP(=O)(N2CCCCCC2)OC1 (stereo unspecified)	inactive: -6.76%

Structure (SMILES)	activity change, negative = inhibition
ClCCSc1nnc(-c2cccnc2)o1	inactive: -8.61%
O=C(OC1CN2CCC1CC2)c1cccc2[nH]cnc12 (stereo unspecified)	inactive: 23.3%
CCN(CC)C(=S)SC(NC=O)C(Cl)(Cl)Cl (stereo unspecified)	inactive: 3.41%
CC(C)NC(=O)NP(=O)(Oc1ccccc1)Oc1ccccc1	inactive: 1.07%
CCCC1OP(N)(=O)OCC1CC (stereo unspecified)	inactive: 3.84%
O=C(O)c1ccccc1[As](=O)(O)O	inactive: -3.31%
CC(=O)Nc1ccc([As](=O)(O)O)cc1	inactive: 1.1%
CN(C)P(=O)(N(C)C)n1c(Nc2ccccc2)nnc1-c1ccccc1	inactive: -6.79%
Cc1ccc(NP(=O)(Oc2ccccc2F)Oc2ccccc2F)nc1	inactive: -6.92%
CCOP(=O)(Nc1ccccc1)OCC	inactive: 0.14%
Cc1cc(SC(NC(=O)c2ccc(F)cc2)C(Cl)(Cl)Cl)ncn1 (stereo unspecified)	inactive: 7.6%
CCN(N=Nc1nonc1N)c1nonc1N	inactive: -3.57%
Nc1cccc2ccc([As](=O)(O)O)cc12	inactive: -3.44%
NC(=O)c1cc([N+](=O)[O-])cc([N+](=O)[O-])c1N	inactive: -15.2%
Cc1ccc(N/C(=N/P(=O)(N2CCOCC2)N2CCOCC2)N2CCOCC2)cc1	inactive: -1.74%
Cc1ccc(OP(=O)(Nc2nccs2)Oc2ccc(C)cc2)cc1	inactive: -10.8%
COc1ccccc1OP(=O)(Nc1ccc(C)cn1)Oc1ccccc1OC	inactive: 23%
Clc1ccc(Cl)c(NC2=NCC(CBr)S2)c1 (stereo unspecified)	inactive: -0.467%
CN1CCCC(OC(=O)C(c2ccccc2)c2ccccc2)C1 (stereo unspecified)	inactive: -11.1%
CC(C)CC(=O)NC(Sc1ccc(Cl)cc1)C(Cl)(Cl)Cl (stereo unspecified)	inactive: 23.6%
Nc1cc(N)c2nonc2c1[N+](=O)[O-]	inactive: -27.2%

Structure (SMILES)	activity change, negative = inhibition
O=C(NC(Sc1ccncn1)C(Cl)(Cl)Cl)c1ccccc1 (stereo unspecified)	inactive: 0.146% [at 1.53 µM]
Oc1ccccc1CNc1ccccn1	inactive: 7.08%
O=[N+]([O-])C1C(O)C(O)C([N+](=O)[O-])C(O)C1O (stereo unspecified)	inactive: 0.719%
COc1ccc(C2=NCC(CBr)S2)cc1 (stereo unspecified)	inactive: 1.33%
CC(=O)N1C2C3N(C(C)=O)C1C1N(C(C)=O)C(C(N1C(C)=O)N3C(C)=O)N2C(C)=O	inactive: 2.82%
O=[N+]([O-])c1cccc2n[nH]nc12	inactive: 0.349%
O=[N+]([O-])c1cc([N+](=O)[O-])c(CCNc2ccccc2)c([N+](=O)[O-])c1	inactive: -20.7%
Cc1ccc(NP(=O)(Oc2ccccc2)Oc2ccccc2)nc1	inactive: -13.9%
Nc1ccc([As](=O)(O)c2ccc(N)cc2)cc1	inactive: 10.7%
CCN(/C(=N/P(=O)(N1CCOCC1)N1CCOCC1)N1CCOCC1)c1ccc(OC)cc1	inactive: 12.5%
CN(C)C(=O)OCCc1n(C)cc[n+]1C	inactive: -14.8%
CC(C)=N/N=C(\N)N[N+](=O)[O-]	inactive: 5.9%
CC(C)c1nc(Nc2ccccc2)n(P(=O)(N(C)C)N(C)C)n1	inactive: -2.58%
c1cc(-c2nn[nH]n2)ccc1-c1nn[nH]n1	inactive: 0.922%
CC1CCN(C(=O)Oc2c(Cl)cc(Cl)c3cccnc23)CC1	inactive: -2.53%
O=P1(N(CCCl)CCCl)OCCCS1 (stereo unspecified)	inactive: 1.78%
O=C(Nc1cc([As](=O)(O)O)ccc1O)c1ccccc1	inactive: -15.6%
CC(C)(C)C(=O)NC(Sc1ccncn1)C(Cl)(Cl)Cl (stereo unspecified)	inactive: -7.03%
O=[N+]([O-])c1ncn(CCn2ncnc2[N+](=O)[O-])n1	inactive: 14.2%
